The target in assay [1] is ePHF tau (tau in the form of paired helical filaments, immobilized on plate) (UniProt P10636). The experiment in a line: ePHF tau ELISA; […]; rep 1. (In general: An ELISA detects its analyte on a solid surface through an enzyme-linked reagent.)
Assay [2] shares this target. Put plainly: ePHF tau ELISA; […]; rep 2.
Assay [3] shares this target. Put plainly: ePHF tau ELISA; 0.5 ng/mL; rep 1.
For assay [4] the target is unchanged. Put plainly: ePHF tau ELISA; 0.5 ng/mL; rep 2.
For assay [5] the target is unchanged. The experiment in a line: ePHF tau ELISA; 4.1 ng/mL; rep 1.
The target is the same in assay [6]. Put plainly: ePHF tau ELISA; 4.1 ng/mL; rep 2.
The target is the same in assay [7]. Put plainly: ePHF tau ELISA; 12.3 ng/mL; rep 1.
Assay [8] has the same target. The experiment in a line: ePHF tau ELISA; 12.3 ng/mL; rep 2.
Assay [9] shares this target. Put plainly: ePHF tau ELISA; 37.0 ng/mL; rep 1.
Assay [10] shares this target. Put plainly: ePHF tau ELISA; 37.0 ng/mL; rep 2.
Assay [11] has the same target. The experiment in a line: ePHF tau ELISA; 111.1 ng/mL; rep 1.
Assay [12] has the same target. The experiment in a line: ePHF tau ELISA; 111.1 ng/mL; rep 2.
The target is the same in assay [13]. Put plainly: ePHF tau ELISA; 333.3 ng/mL; rep 1.
For assay [14] the target is unchanged. The experiment in a line: ePHF tau ELISA; 333.3 ng/mL; rep 2.
For assay [15] the target is unchanged. The experiment in a line: ePHF tau ELISA; 1000.0 ng/mL; rep 1.
For assay [16] the target is unchanged. Put plainly: ePHF tau ELISA; 1000.0 ng/mL; rep 2.
In assay [17] the target is wild-type tau (Tau441) (human) (UniProt P10636). The experiment in a line: ELISA, Tau441 on plate; antibody at […].
Assay [18] shares this target. The experiment in a line: ELISA, Tau441 on plate; antibody at 4.1 ng/mL.
The target is the same in assay [19]. Put plainly: ELISA, Tau441 on plate; antibody at 12.3 ng/mL.
The target is the same in assay [20]. Put plainly: ELISA, Tau441 on plate; antibody at 37.0 ng/mL.
The target is the same in assay [21]. The experiment in a line: ELISA, Tau441 on plate; antibody at 111.1 ng/mL.
For assay [22] the target is unchanged. The experiment in a line: ELISA, Tau441 on plate; antibody at 333.3 ng/mL.
Assay [23] has the same target. The experiment in a line: ELISA, Tau441 on plate; antibody at 1000.0 ng/mL.
For assay [24] the target is unchanged. The experiment in a line: ELISA, Tau441 on plate; antibody at 0.0 ng/mL [sic].

Turning to “PHF-1 control anti-tau antibody (antibody; other documents disagree on this pair)”, the OD450 turned out to be 0.1 in assay [1]; 0.1 in assay [2]; 0.1 in assay [3]; 0.1 in [4]; 0.2 in [5]; 0.2 in assay [6]. The OD450 came out at 0.5 in assay [7]; 0.5 in [8]; 0.8 in [9]; 0.9 in [10]; 1.2 in assay [11]; 1.3 in assay [12]. Besides, the OD450 in assay [13] was 1.5; in assay [14], 1.6; in assay [15], 2.1; in assay [16], 2.2.
Take PHF-1 control antibody: the OD450 in assay [17], in [18], in [19], in assay [20], in [21] and in [22] was 0.1 OD450 in each case. For the same substance, the OD450 in [23] and in assay [24] was 0.1 OD450 throughout.

Values taken from patent US20220339270A1.
